The results in this text go back to US20090186832A1 (priority 2008, published 2009).

For the series the following is noted: plasma buprenorphine; 0.5 mg buprenorphine free base/kg; group2 dogs.

Some compounds may have been tested in ways that are not shown here.

On to Buprenorphine leucine carbamate, for which the “AUC (mean ngh/mL ± SD)” value is 13.1 ± 3.5 ngh/mL and the “Cmax (mean ng/mL ± SD)” value is 1.68 ± 0.56 ng/mL.
